From ChEMBL document CHEMBL1136593, “Design, synthesis, and discovery of 5-piperazinyl-1,2,6,7-tetrahydro-5H-azepino[3,2,1-hi]indol-4-one derivatives: a novel series of mixed dopamine D2/D4 receptor antagonist” (Bioorg Med Chem Lett, 2003)

Protein sequences, listed by entry. Tags and fused reporters are not part of them.
UniProt P14416, whole entry: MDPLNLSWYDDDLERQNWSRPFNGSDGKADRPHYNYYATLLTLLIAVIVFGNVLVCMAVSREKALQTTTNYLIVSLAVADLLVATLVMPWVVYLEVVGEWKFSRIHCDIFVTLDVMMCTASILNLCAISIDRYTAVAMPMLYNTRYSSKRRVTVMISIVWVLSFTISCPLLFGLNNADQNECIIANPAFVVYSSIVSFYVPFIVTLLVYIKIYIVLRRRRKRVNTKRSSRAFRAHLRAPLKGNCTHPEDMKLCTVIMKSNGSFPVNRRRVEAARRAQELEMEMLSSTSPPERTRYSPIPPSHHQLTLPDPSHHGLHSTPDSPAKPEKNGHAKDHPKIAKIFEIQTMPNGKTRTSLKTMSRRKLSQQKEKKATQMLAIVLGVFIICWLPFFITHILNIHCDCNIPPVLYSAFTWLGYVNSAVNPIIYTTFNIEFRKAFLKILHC

Target: D(2) dopamine receptor (Homo sapiens, UniProt P14416)
Experiment: Displacement of [3H]-YM 09151 from D2 receptor

Ki: 201 nM
SMILES: CC1(C)Cc2cccc3c2N1C(=O)C(N1CCN(Cc2ccc(Cl)cc2)CC1)CC3 (stereo unspecified)
